Molecular target: BIR3 domain of XIAP (Homo sapiens, UniProt P98170)
Conditions: regardless of the incubation times of either 2 h or 6 h

Chains of the proteins cited; added tags and fusions are not shown. Residues count along the entry.
UniProt P98170, 253-347: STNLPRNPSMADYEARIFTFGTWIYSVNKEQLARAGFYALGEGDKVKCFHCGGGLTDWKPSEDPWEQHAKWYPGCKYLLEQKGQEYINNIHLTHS

XIAP-BIR3 ΔTm: < 20 °C
SMILES: CN[C@@H](C)C(=O)N[C@H]1CN(C(=O)CC(C)C)CC[C@H]2CC[C@@H](C(=O)NC(c3ccccc3)c3ccccc3)N2C1=O [AT406]
